Measured values: patent publication US6506766B1 (Abbott Laboratories, priority 1998, dated 2003)

The compounds below were run against T1, human glucocorticoid receptor-α [GRX] isoform (Homo sapiens, UniProt P04150) (assay: Radioligand binding with human glucocorticoid receptor cytosol ([3H]-dexamethasone competition)). Settings: GRX cytosol expressed in insect SF21 cells, [3H]-Dex ~0.9 nM, 4° C. overnight; Ki by Cheng-Prusoff, KL ~1.5 nM; read-out: Ki (nM) GR.
T1 construct: host or cells: insect SF21 cells (baculovirus)
T1 sequence (P04150 1-777): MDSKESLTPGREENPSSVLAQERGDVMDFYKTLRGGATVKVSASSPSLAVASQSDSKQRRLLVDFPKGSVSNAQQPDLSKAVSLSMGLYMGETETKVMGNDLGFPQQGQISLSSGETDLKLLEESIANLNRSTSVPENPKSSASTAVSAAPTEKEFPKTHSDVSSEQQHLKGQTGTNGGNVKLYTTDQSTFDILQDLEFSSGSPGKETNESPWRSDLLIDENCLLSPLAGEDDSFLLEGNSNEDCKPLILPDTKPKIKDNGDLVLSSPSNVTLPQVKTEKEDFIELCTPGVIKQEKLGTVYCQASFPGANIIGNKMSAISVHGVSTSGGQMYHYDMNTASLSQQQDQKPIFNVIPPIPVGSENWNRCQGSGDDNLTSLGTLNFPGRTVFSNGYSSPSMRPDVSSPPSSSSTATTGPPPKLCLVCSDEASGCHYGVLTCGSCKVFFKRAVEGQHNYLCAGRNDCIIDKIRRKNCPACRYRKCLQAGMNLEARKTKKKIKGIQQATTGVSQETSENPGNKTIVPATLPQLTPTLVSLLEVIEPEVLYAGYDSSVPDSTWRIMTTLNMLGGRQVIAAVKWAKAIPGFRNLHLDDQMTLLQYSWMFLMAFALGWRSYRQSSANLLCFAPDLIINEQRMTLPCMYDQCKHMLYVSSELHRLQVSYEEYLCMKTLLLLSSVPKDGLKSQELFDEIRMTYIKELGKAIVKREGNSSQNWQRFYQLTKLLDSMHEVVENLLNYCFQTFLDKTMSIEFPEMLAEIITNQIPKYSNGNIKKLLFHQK

Ki [nM] | SMILES
3.7 | CCCCC1Oc2cccc(OC)c2-c2ccc3c(c21)C(C)=CC(C)(C)N3 (stereo not drawn) [Example 20, 5-Butyl-2,5-dihydro-10-methoxy-2,2,4-trimethyl-1H-[1]benzopyrano[3,4-f]quinoline]
50 | COc1cccc2c1-c1ccc3c(c1C(C)O2)C(C)=CC(C)(C)N3 (stereo not drawn) [Example 57, 2,5-Dihydro-10-methoxy-2,2,4,5-tetramethyl-1H-[1]benzopyrano[3,4-f]quinoline]
62 | COc1cccc2c1-c1ccc3c(c1C(CCN(C)C)O2)C(C)=CC(C)(C)N3 (stereo not drawn) [Example 64, 2,5-Dihydro-10-methoxy-2,2,4,N,N-pentamethyl-1H-[1]benzopyrano[3,4-f]quinoline5-ethanamine]
7 | C=CC(=C)CC1Oc2cccc(OC)c2-c2ccc3c(c21)C(C)=CC(C)(C)N3 (stereo not drawn) [Example 172]
106 | COc1cccc2c1-c1ccc3c(c1C(CCO)O2)C(C)=CC(C)(C)N3 (stereo not drawn) [Example 199, 2,5-Dihydro-10-methoxy-5-(2-hydroxyethyl)-2,2,4-trimethyl-1H-[1]benzopyrano[3,4-f]quinoline]
25 | CCOC(=O)C1Oc2cccc(OC)c2-c2ccc3c(c21)C(C)=CC(C)(C)N3 (stereo not drawn) [Example 208, 2,5-Dihydro-10-methoxy-5-(carboethoxy)-2,2,4-trimethyl-1H-[1]benzopyrano[3,4-f]quinoline]
49 | C=CC1Oc2cccc(OC)c2-c2ccc3c(c21)C(C)=CC(C)(C)N3 (stereo not drawn) [Example 320, 2,5-Dihydro-10-methoxy-5-ethenyl-2,2,4-trimethyl-1H-[1]benzopyrano[3,4-f]quinoline]
2.3 | C=CCC1Oc2c(Br)cc(O)c(Cl)c2-c2ccc3c(c21)C(C)=CC(C)(C)N3 (stereo not drawn) [Example 397, 2,5-Dihydro-7-bromo-9-hydroxy-10-chloro-2,2,4-trimethyl-5-allyl-1H-[1]benzopyrano[3,4-f]quinoline]

What follows are compounds tested against T2, human progesterone receptor-A [PRA] isoform (Homo sapiens, UniProt P06401) (assay: Radioligand binding with human progesterone receptor cytosol ([3H]-progesterone competition)). Settings: PRA cytosol expressed in insect SF21 cells, [3H]Prog ~0.8 nM, 4° C. overnight; Ki by Cheng-Prusoff, KL ~4.5 nM; read-out: Ki (nM) PR.
T2 construct: host or cells: insect SF21 cells (baculovirus)
T2 sequence (P06401 1-769 isoform P06401-2): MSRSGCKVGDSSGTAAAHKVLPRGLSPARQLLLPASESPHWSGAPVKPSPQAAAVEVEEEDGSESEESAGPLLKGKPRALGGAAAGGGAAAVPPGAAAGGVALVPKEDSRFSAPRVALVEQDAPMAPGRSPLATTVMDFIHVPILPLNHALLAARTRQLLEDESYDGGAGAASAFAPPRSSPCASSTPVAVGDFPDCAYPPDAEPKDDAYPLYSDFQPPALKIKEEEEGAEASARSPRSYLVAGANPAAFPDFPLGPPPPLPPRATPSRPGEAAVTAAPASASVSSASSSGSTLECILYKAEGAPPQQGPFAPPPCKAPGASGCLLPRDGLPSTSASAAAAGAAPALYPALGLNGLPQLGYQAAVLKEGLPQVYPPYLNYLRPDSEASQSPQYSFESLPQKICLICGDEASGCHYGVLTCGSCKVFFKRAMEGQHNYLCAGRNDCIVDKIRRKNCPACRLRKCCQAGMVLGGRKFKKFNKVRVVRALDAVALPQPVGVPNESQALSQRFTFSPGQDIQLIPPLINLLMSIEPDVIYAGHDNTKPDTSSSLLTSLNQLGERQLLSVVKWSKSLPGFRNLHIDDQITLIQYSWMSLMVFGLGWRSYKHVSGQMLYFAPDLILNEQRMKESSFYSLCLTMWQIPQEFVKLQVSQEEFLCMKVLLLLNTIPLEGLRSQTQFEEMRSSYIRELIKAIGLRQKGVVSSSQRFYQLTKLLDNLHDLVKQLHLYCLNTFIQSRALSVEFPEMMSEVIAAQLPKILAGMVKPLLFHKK

Ki [nM] | SMILES
7340 | CCCC1Oc2cccc(OC)c2-c2ccc3c(c21)C(C)=CC(C)(C)N3 (stereo not drawn) [Example 54, 2,5-Dihydro-10-methoxy-2,2,4-trimethyl-5-propyl-1H-[1]benzopyrano[3,4-f]quinoline]
502 | C#CCC1Oc2cccc(OC)c2-c2ccc3c(c21)C(C)=CC(C)(C)N3 (stereo not drawn) [Example 66, 2,5-Dihydro-10-methoxy-2,2,4-trimethyl-5-(2-propynyl)-1H-[1]benzopyrano[3,4-f]quinoline]
≥ 10000 | COc1cccc2c1-c1ccc3c(c1C(C=C(C)C)O2)C(C)=CC(C)(C)N3 (stereo not drawn) [Example 324, 2,5-Dihydro-10-methoxy-5-(2-methylpropenyl)-2,2,4-trimethyl-1H-[1]benzopyrano[3,4-f]quinoline]
8.4 | CCCC1Oc2ccc(O)c(Cl)c2-c2ccc3c(c21)C(C)=CC(C)(C)N3 (stereo not drawn) [Example 411, 2,5-Dihydro-9-hydroxy-10-chloro-2,2,4-trimethyl-5-propyl-1H-[1]benzopyrano[3,4-f]quinoline]
